According to publication PMC8625360, “Direct Interaction of ATP7B and LC3B Proteins Suggests a Cooperative Role of Copper Transportation and Autophagy” (Cells, 2021):

Legend:
[1] = target: LC3B protein (microtubule-associated protein light chain 3B), purified, tags removed (UniProt Q9GZQ8); assay: FP
LC3B = target: T1, LC3B (Homo sapiens, UniProt Q9GZQ8); assay: Fluorescence polarization binding of CF-labelled LIR peptides to purified LC3B; conditions: CF-labelled peptide 2.5 µM (25 µL) + LC3B 0.2–330 µM (25 µL), HEPES buffer 50 mM pH 7.2, 50 mM NaCl, 2 mM DTE, one site-specific binding fit, three independent replications, read-out: Kd (dissociation constant) for LC3B
T1 construct: His6 (N, cleaved yes); MBP (N, cleaved yes); made in house; host or cells: E. coli BL21-codonplus (DE3)-RIL
Method: Binding experiments were done in a black 384-microwell plate. The CF-labelled peptides and purified LC3B protein were dissolved in a HEPES buffer. Each CF-labelled peptide in a volume of 25 µL at a concentration of 2.5 µM was combined with 25 µL of LC3B at a concentration range from 0.2–330 µM. The fluorescent polarization was measured with the excitation and emission wavelengths of […], respectively. The obtained polarization data were corrected by subtraction of the peptide alone (blank). The dissociation constant (Kd) was quantified using a nonlinear curve fitting the site-specific binding on GraphPad Prism 5.0 for Windows (GraphPad Software, La Jolla, CA, USA). Experiments were performed in three independent replications.

Compound | Kd [1] [µM] | Kd (LC3B) [µM]
LIR3 peptide of ATP7B with S1453A, CF-labelled (from UniProt P35670) | 5.13 | 
CC(C)C[C@H](NC(=O)[C@H](C)NC(=O)[C@H](CC(C)C)NC(=O)[C@H](CO)NC(=O)[C@H](Cc1c[nH]c2ccccc12)NC(=O)[C@H](CCCCN)NC(=O)[C@H](CC(=O)O)NC(=O)CNC(=O)[C@H](CC(=O)O)NC(=O)[C@H](CC(=O)O)NC(=O)[C@H](CC(=O)O)NC(=O)[C@H](C)NC(=O)c1ccc2c(c1)C(=O)OC21c2ccc(O)cc2Oc2cc(O)ccc21)C(=O)N[C@@H](CC(N)=O)C(=O)NCC(=O)N[C@@H](CCCNC(=N)N)C(=O)N[C@@H](CC(=O)O)C(N)=O [LIR3^L1455A] |  | 43 ± 1
CC(C)C[C@H](NC(=O)[C@H](CC(C)C)NC(=O)[C@H](CC(C)C)NC(=O)[C@H](COP(=O)(O)O)NC(=O)[C@H](Cc1c[nH]c2ccccc12)NC(=O)[C@H](CCCCN)NC(=O)[C@H](CC(=O)O)NC(=O)CNC(=O)[C@H](CC(=O)O)NC(=O)[C@H](CC(=O)O)NC(=O)[C@H](CC(=O)O)NC(=O)[C@H](C)NC(=O)c1ccc2c(c1)C(=O)OC21c2ccc(O)cc2Oc2cc(O)ccc21)C(=O)N[C@@H](CC(N)=O)C(=O)NCC(=O)N[C@@H](CCCNC(=N)N)C(=O)N[C@@H](CC(=O)O)C(N)=O [LIR3^S1453-PO4] |  | 12.9 ± 0.9

Results, then the compound that gave them:

Kd [1] [µM] | Kd (LC3B) [µM] | Compound
 | 5.13 ± 0.34 | CC(C)C[C@H](NC(=O)[C@H](C)NC(=O)[C@H](Cc1c[nH]c2ccccc12)NC(=O)[C@H](CCCCN)NC(=O)[C@H](CC(=O)O)NC(=O)CNC(=O)[C@H](CC(=O)O)NC(=O)[C@H](CC(=O)O)NC(=O)[C@H](CC(=O)O)NC(=O)[C@H](C)NC(=O)c1ccc2c(c1)C(=O)OC21c2ccc(O)cc2Oc2cc(O)ccc21)C(=O)N[C@@H](CC(C)C)C(=O)N[C@@H](CC(C)C)C(=O)N[C@@H](CC(N)=O)C(=O)NCC(=O)N[C@@H](CCCNC(=N)N)C(=O)N[C@@H](CC(=O)O)C(N)=O [LIR3^S1453A]
 | 3.72 ± 0.17 | CC(C)C[C@H](NC(=O)[C@H](CC(C)C)NC(=O)[C@H](CC(C)C)NC(=O)[C@H](CO)NC(=O)[C@H](Cc1c[nH]c2ccccc12)NC(=O)[C@H](CCCCN)NC(=O)[C@H](CC(=O)O)NC(=O)CNC(=O)[C@H](CC(=O)O)NC(=O)[C@H](CC(=O)O)NC(=O)[C@H](CC(=O)O)NC(=O)[C@H](C)NC(=O)c1ccc2c(c1)C(=O)OC21c2ccc(O)cc2Oc2cc(O)ccc21)C(=O)N[C@@H](CC(N)=O)C(=O)NCC(=O)N[C@@H](CCCNC(=N)N)C(=O)N[C@@H](CC(=O)O)C(N)=O [LIR3]
